Reference: patent US20260021193A1 (IMMUNOME, published 2026)
Where two headings read alike, the source gives them in different places.

Legend:
[1] = molecular target: T1, human ROR-1 endogenously expressed on JeKo-1 and MDA-MB-468 cells (human, UniProt Q01973); experiment: cell-based or functional assay
[2] = molecular target: T2, Hu/Cy/Rh ROR1 - His (Human/Cyno/Rhesus, UniProt Q01973, in part); experiment: SPR, purified Hu/Cy/Rh ROR1-His
T2 construct: Purified His-tagged ROR1 protein used in SPR; also called Human/Cyno/Rhesus ROR-1; not shown: His tag

[3] = molecular target: T1, human ROR-1 endogenously expressed on …; experiment: flow cytometry (cellular binning): titration of the antibody on MDA-MB-468 cells, fluorescently labeled secondary antibody, % Top MFI
Protocol: (§1) Next, the anti-ROR-1 antibodies were fluorescently labeled with a secondary antibody.
(§2) In Step 2, a fluorescently labeled secondary antibody recognizing the novel antibodies was incubated with the samples.

[4] = molecular target: T1, human ROR-1 endogenously expressed on …; experiment: flow cytometry competition (cellular binning) on MDA-MB-468 cells: cells coated with titrated ATX-P-890, then a saturating dose of the labeled competitor 4A5-PE, whose signal is plotted in % Top MFI
Protocol: as §1, §2

[5] = molecular target: T1, human ROR-1 endogenously expressed on …; experiment: flow cytometry (cellular binning): titration of the antibody on MDA-MB-468 cells, fluorescently labeled secondary antibody, % Top MFI; remark: listed apart in the source
Protocol: as §1, §2

B1: ATX-P-890 (antibody, V domains shown)
VH: QVQLVQSGAEVKKPGASVKVSCKASGYTFTGYYMHWVRQAPGQGLEWMGWINPNSGGTNYAQKFQGRVTMTRDTSISTAYMELSRLRSDDTAVYYCVRDQVQLERFDSWGQGTLVTVSS
VL: [about 100 residues not shown]
In the case of B1, the “JeKo-1 (%) cellular internalization” value [1] is reported as 70%, the “MDA-MB-468(%) cellular internalization” value [1] is reported as 80% and the Kd [2] is reported as 8.4 nM. The koff [2] was 0.00314 s⁻¹, the kon [2] was 392000 M⁻¹ s⁻¹ and the “EC50 (read off the curve)” value [3] was roughly 0.8 nM. For the same binder, the “IC50 (read off the curve)” value [4] was roughly 1 nM and the “EC50 (read off the curve)” value [5] was roughly 0.9 nM.
